Assay: Stability to simulated gastrointestinal digestion (DPPH· scavenging activity)
Type: in vitro ADME
Conditions: two-stage model: pepsin 120 min then trypsin 120 min; 0 to 240 min; peptide 2.0 mg/mL; read-out DPPH· scavenging activity
Procedure: The stability of TCP1 to TCP11 from tuna cardiac arterial bulbs was determined according to the previous method with a slight modification. The DPPH· scavenging activity (%) of TCP1 to TCP11 at 2.0 mg/mL were measured at the set conditions to evaluate their stability.
The thermostability of TCP1 to TCP11 at 20, 40, 60, 80, or 100 °C for 60 min was analyzed in water bath. The influences of pH values of 3, 5, 7, 9, or 11 were employed to estimate the acid and alkali stability properties of TCP1 to TCP11 at 25 °C, and the detecting time was set to 60, 120, and 180 min, respectively. The influence of simulate GI digestion on the stability of TCP1 to TCP11 was evaluated by the two-stage digestion model. In short, APs (TCP1 to TCP11) were separately treated with pepsin for 120 min and trypsin for 120 min.

NCC(=O)N1CCC[C@H]1C(=O)N[C@@H](CCC(N)=O)C(=O)O [TCP4, Gly-Pro-Gln]
Declined percentage of DPPH· scavenging activity after simulated GI digestion: 3.22%
